From US20150238444A1, “CHLORHEXIDINE GLUCONATE SOLUBILIZED IN A HYDROPHOBIC MONOACYLGLYCERIDE” (3M INNOVATIVE PROPERTIES COMPANY, priority 2012, published 2015)

Test: Screening of CHG solubility in hydrophobic vehicles after vacuum-stripping water
Type: physicochemical
Description: General Method for Vacuum-Stripping Water from CHG Solutions. A 25 g sample of CHG/water solution (20 wt. CHG) was added to 45 g of the hydrophobic monoacylglyceride of interest in a 200 mL round bottom flask. The flask was put in a 60° C. oil bath and stirred with a magnetic stir bar. Vacuum (less than 3.3 kilopascal (25 Torr)) was pulled until bubbling stopped and the weight had closely approached the theoretical value of 50 grams—usually 30-90 minutes. […] In those cases, after nearly all the water was removed, additional hydrophobic monoacylglyceride was added to bring the final weight to 50 grams.
Screening tests were conducted to determine the solubility of CHG in a variety of hydrophobic vehicles. Samples were prepared by mixing CHG (20 wt. % solution in water, obtained from Xttrium Laboratories Inc., Chicago, Ill.) with the vehicle and vacuum stripping in accordance with the General Method for Vacuum-Stripping Water from CHG Solutions. The resulting concentration of CHG and residual water were determined. Also, the final state of the solution was qualitatively evaluated to determine whether the mixture was transparent and apparently homogenous, or clearly inhomogeneous.

Experimental Solubility with CHG: No
Final State (CHG 10 wt. %, 23-50° C.): Inhomogeneous
CHG wt. % (resulting concentration of CHG in the vehicle) (after vacuum stripping of water from CHG/vehicle mixture): 10% wt. %
Substance: Dialkyl (C12 & C13) Tartrate
